# In patent publication US5866681A, “Thrombin receptor antagonists” (priority 1995, dated 1999):
# Chains of the proteins cited; added tags and fusions are not shown. Residues count along the entry.
# UniProt P25116, 22-425 limits assumed: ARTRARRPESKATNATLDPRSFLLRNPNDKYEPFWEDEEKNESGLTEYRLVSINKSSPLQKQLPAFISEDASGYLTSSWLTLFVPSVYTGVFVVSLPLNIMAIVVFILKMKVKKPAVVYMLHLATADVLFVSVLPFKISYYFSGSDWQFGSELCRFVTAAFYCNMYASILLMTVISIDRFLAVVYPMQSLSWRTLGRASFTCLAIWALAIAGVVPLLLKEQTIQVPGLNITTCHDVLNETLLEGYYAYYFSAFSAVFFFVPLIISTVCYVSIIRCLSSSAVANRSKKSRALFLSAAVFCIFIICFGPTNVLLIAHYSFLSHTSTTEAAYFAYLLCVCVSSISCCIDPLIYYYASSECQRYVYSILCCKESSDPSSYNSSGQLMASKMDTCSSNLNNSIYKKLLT
# Biological target: thrombin receptor (Homo sapiens, UniProt P25116)
# Assay: Platelet aggregation assay for thrombin receptor antagonist activity (washed human platelets stimulated with α-thrombin)
# Format: cell-based
# Conditions: read-out: IC50 (concentration at which 50% inhibition of platelet aggregation is achieved), thrombin-mediated aggregation
# Method: The compounds of the present invention may be tested for thrombin receptor antagonist activity by using a platelet aggregation assay. In this assay, washed human platelets are prepared from blood drawn from healthy volunteers who have not ingested any medications for two weeks prior to donation. Blood is drawn into 12.5% (vol/vol) ACD (85 mM sodium citrate, 111 mM dextrose, 71 mM citric acid) containing 0.1% (vol/vol) PGI2 (0.05 mg/mL PGI2, 100 mM Tris, pH 12). Platelet-rich plasma was obtained by centrifugation at 160×g for 20 minutes. The platelets were pelleted by centrifugation at 760×g for 10 minutes and resuspended in CGS (13 mM trisodium citrate, 120 mM sodium chloride, 30 mM dextrose, pH 7.0) containing 0.1% (vol/vol) PGI2, repelleted and resuspended in Tyrodes buffer (10 mM Hepes, 12 mM sodium bicarbonate, 138 mM sodium chloride, 5.5 mM glucose, 2.9 mM potassium chloride, 1.0 mM calcium chloride, pH 7.4) and stored at 37° C. Approximately 0.4-10 nM α-thrombin is used to stimulate platelet aggregation in control reactions which are monitored by aggregometry using an aggregometer. […]
# Platelet aggregation can also be measured with washed platelets in 96-well microtiter plates as described in Fratantoni, J. C. et al., Am. […] The ability of the antagonists to block the thrombin receptor was assessed in this assay using various concentrations of antagonists. […]
row,IC50 [µM],SMILES
1,5,CCCCCN1Cc2ccccc2C[C@H]1C(=O)N[C@@H](CC1CCCCC1)C(=O)N[C@@H](CC1CCCCC1)C(=O)N(C)[C@@H](CCCNC(=N)N)C(N)=O
2,6,N=C(N)NCCC[C@H](NC(=O)[C@H](CCCNC(=N)N)NC(=O)[C@H](CC1CCCCC1)NC(=O)[C@@H](CCCOc1ccccc1)Cc1ccccc1)C(N)=O
